Earlier results as cited in patent publication US4239778A, “Azaprostanoic acid analogs and their use as inhibitors of platelet aggregation” (priority 1978, dated 1980).

Test system: cyclooxygenase (bovine seminal vesicles and human platelets)
Conditions: bovine seminal vesicles vs human platelets; cited from earlier work

COc1ccc2c(c1)c(CC(=O)O)c(C)n2C(=O)c1ccc(Cl)cc1 [indomethacin]
I50, difference between the two enzyme sources (in words): do not differ significantly between the two enzyme sources

CC(=O)Oc1ccccc1C(=O)O [aspirin]
I50, difference between the two enzyme sources (in words): do not differ significantly between the two enzyme sources
